# Earlier results as cited in US4902505A, “Chimeric peptides for neuropeptide delivery through the blood-brain barrier” (Alkermes, priority 1988, dated 1990).
# Test system: blood-brain barrier
# Details: general statement, no test described; cited from earlier work
substance,measurement,value
insulin,transport through the blood-brain barrier,is transported
